Results as given in PubChem BioAssay (NCI).
The entries are a selection whose mix differs from that of the whole data set. Some compounds were tested as several samples or in several runs, with calls that do not always agree. Activity calls are given as the source filed them. No stated cut-off is given here; in the data, active means growth inhibition above about 70%; inactive means the rest.

Assay: NCI Yeast Anticancer Drug Screen. Data for the mlh1 strain (AID 171);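 further: 0% = growth of vehicle-treated control cultures of the same strain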
Details: S. cerevisiae mlh1 strain growth inhibition, hits give high values
Method: Growth inhibition of yeast strains with defined genetic alterations is measured as a screen for potential anti-cancer activity. Selected strains with alterations in DNA damage repair or cell cycle control were exposed to compounds and growth inhibition was measured relative to vehicle treated controls. The strain used in this assay is mlh1

Row | SMILES | growth inhibition (at 1.2 µM) | growth inhibition (at 3.7 µM) | growth inhibition (at 11.0 µM) | growth inhibition (at 33.0 µM) | growth inhibition (at 100.0 µM)
1 | Cc1ccc([N+](=O)[O-])c(C[N+](C)(CCCl)CCCl)c1 | inactive: -28% | inactive: -27% | inactive: 11% | inactive: 41% | active: 93%
2 | COc1ccc([N+](=O)[O-])c(C[N+](C)(CCCl)CCCl)c1 | inactive: 8% | inactive: 10% | inactive: 10% | inactive: 18% | inactive: 43%
3 | Cc1cccc(C[N+](C)(CCCl)CCCl)c1[N+](=O)[O-] | inactive: -2% | inactive: -4% | inactive: 10% | inactive: 48% | active: 90%
4 | COc1ccc(C[N+](C)(CCCl)CCCl)c([N+](=O)[O-])c1 | inactive: 1% | inactive: 6% | inactive: 9% | inactive: 15% | inactive: 16%
5 | Cn1cnc([N+](=O)[O-])c1C[N+](C)(CCCl)CCCl | inactive: -22% | inactive: -8% | inactive: 8% | inactive: 38% | active: 77%
6 | ClCCN1CCCCC1CCl (stereo not given) | inactive: -1% | inactive: -1% | inactive: 1% | inactive: 7% | inactive: 35%
